{"source": "PubChem BioAssay AID685", "about": "(PCMD, 2007)", "note": "Only a part is listed here, and it is no random draw. Calls of active or inactive are those of the source.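 The calls were made as follows: active = mutant and wild-type yeast strains alike exhibit over 30% growth inhibition; inconclusive = a strain exceeds 50% while the second remains under 30%; inactive = the rest.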"}
{"assay": "S. cerevisiae growth inhibition, turbidity – wild-type and eIF2Bepsilon R284H mutant, A595, cytotoxicity control for eIF2B function restoration project, primary screen (AID 685);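 also: 0% = untreated cell controls and 100% = YPD media blanks without cells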", "settings": "16 h, active compounds read high, screened at 25 µM (by protocol)", "method_in_brief": "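Schedule: 16 h growth with compound, 30 °C. System: yeast, wild-type or eIF2Bepsilon-R284H mutant. Doses: one dose, 25 µM compound[…]. Buffer or medium: YPD. Signal: turbidity measured as absorbance at 595 nm. Read-out basis: growth inhibition (%) versus cell controls and blanks.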"}
{"smiles": "O=C(OC1CN2CCC1CC2)c1cccc(Cl)c1", "note": "(stereo not given)", "growth inhibition": "inactive: 3.61%"}
{"smiles": "COC(=O)c1cc2c(s1)N=C(c1ccccc1)N(C)P2(=O)N1CCOCC1", "note": "(stereo not given)", "growth inhibition": "inactive: 3.11%"}
{"smiles": "O=P1(Nc2nc3ccc(Cl)cc3s2)COc2ccccc2O1", "note": "(stereo not given)", "growth inhibition": "inactive: -0.71%"}
{"smiles": "CN1CCCC(OC(=O)C(c2ccccc2)c2ccccc2)C1", "note": "(stereo not given)", "growth inhibition": "inactive: -1.88%"}
{"smiles": "COc1ccc(OP(C)(=O)Nc2ccccn2)cc1", "note": "(stereo not given)", "growth inhibition": "inactive: 28.5%"}
{"smiles": "COc1ccccc1OP(C)(=O)Nc1ccc(C)cc1C", "note": "(stereo not given)", "growth inhibition": "inactive: 17.9%"}
{"smiles": "Cc1c2non([O-])c-2c(C)[n+](=O)[n+]1[O-]", "growth inhibition": "inactive: -8.75%"}
{"smiles": "Oc1ccccc1CNc1ccccn1", "growth inhibition": "inactive: 24.4%"}
{"smiles": "Cc1c(NP(C)(=O)Oc2ccc(C(C)C)cc2)c(=O)n(-c2ccccc2)n1C", "note": "(stereo not given)", "growth inhibition": "inactive: -13.1%"}
{"smiles": "O=[N+]([O-])c1cccc2n[nH]nc12", "growth inhibition": "inactive: 18.9%"}
{"smiles": "CC1CCN(C(=O)Oc2c(Cl)cc(Cl)c3cccnc23)CC1", "growth inhibition": "inactive: -9.63%"}
{"smiles": "CCOP(C)(=S)SCC(=O)NC(C)C(=O)O", "note": "(stereo not given)", "growth inhibition": "inactive: -3.12%"}
{"smiles": "Cc1ccc(NP(C)(=O)Oc2ccccc2)c(C)c1", "note": "(stereo not given)", "growth inhibition": "inactive: 1.67%"}
{"smiles": "COc1ccccc1OP(C)(=O)Nc1ccc(C)cc1", "note": "(stereo not given)", "growth inhibition": "inactive: 18.9%"}
{"smiles": "O=C(OC1CN2CCC1CC2)C12CC3CC(CC(C3)C1)C2", "note": "(stereo not given)", "growth inhibition": "inactive: -2.24%"}
{"smiles": "Cc1cc(C)cc(OP(C)(=O)Nc2ccccn2)c1", "note": "(stereo not given)", "growth inhibition": "inactive: 27.3%"}
{"smiles": "O=P1(Nc2ccc(Br)cn2)COc2ccccc2OC1", "growth inhibition": "inactive: 19.3%"}
{"smiles": "COc1ccccc1OP(C)(=O)Nc1c(C)cccc1C", "note": "(stereo not given)", "growth inhibition": "inactive: -1.72%"}
{"smiles": "O=P1(Nc2ncccn2)COc2ccccc2OC1", "growth inhibition": "inactive: 6.19%"}
{"smiles": "CC1(CBr)Cn2c(nc3ccccc3c2=O)S1", "note": "(stereo not given)", "growth inhibition": "inactive: 0.34%"}
